PubChem BioAssay (EPA / NIEHS)
The list shows a part of the results, in another mix than the full data. Results filed as inconclusive are left out. The source made the active and inactive calls. The calls were made as follows, unless noted: active = hit-call score of the fitted dose curve at least 0.9, where 1 is the maximum; inactive = score below 0.9.

Protein sequences, listed by entry. Tags and fused reporters are not part of them.
UniProt P01106, whole entry: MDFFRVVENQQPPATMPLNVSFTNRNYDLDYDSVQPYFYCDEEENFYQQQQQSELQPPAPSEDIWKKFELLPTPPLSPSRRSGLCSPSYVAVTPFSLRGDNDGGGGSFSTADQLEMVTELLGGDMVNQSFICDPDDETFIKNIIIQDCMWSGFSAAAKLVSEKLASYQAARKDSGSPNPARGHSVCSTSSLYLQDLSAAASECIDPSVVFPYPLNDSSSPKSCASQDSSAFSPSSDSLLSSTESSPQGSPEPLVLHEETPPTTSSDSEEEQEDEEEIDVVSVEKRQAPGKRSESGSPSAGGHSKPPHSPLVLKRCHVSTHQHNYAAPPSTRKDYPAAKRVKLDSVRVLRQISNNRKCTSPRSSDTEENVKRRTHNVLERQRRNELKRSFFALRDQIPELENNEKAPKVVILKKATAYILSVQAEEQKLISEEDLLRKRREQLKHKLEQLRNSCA
UniProt P04637, whole entry: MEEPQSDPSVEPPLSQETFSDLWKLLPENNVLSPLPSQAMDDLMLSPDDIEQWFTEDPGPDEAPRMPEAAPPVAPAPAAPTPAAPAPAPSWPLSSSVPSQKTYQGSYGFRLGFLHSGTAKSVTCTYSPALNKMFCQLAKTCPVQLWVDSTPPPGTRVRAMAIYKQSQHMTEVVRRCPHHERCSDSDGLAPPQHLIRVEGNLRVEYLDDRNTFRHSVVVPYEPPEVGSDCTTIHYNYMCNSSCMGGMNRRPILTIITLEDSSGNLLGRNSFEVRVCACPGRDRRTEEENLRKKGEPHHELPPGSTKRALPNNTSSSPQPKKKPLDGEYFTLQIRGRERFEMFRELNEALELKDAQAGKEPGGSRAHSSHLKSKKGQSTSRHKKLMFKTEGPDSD
UniProt Q07869, whole entry: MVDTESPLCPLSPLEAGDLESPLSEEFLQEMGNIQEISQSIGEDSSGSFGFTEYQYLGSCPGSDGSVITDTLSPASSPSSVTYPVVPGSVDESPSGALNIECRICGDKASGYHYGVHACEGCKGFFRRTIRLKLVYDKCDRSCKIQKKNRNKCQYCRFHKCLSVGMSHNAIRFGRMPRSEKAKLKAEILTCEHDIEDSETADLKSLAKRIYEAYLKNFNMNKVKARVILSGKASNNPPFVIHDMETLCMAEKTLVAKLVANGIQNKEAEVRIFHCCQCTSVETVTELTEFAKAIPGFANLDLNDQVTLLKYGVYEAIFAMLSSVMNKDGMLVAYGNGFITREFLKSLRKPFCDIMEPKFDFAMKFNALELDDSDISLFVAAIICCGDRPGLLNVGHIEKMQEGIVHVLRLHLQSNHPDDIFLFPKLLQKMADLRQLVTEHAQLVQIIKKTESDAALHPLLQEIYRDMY
UniProt Q03181, whole entry: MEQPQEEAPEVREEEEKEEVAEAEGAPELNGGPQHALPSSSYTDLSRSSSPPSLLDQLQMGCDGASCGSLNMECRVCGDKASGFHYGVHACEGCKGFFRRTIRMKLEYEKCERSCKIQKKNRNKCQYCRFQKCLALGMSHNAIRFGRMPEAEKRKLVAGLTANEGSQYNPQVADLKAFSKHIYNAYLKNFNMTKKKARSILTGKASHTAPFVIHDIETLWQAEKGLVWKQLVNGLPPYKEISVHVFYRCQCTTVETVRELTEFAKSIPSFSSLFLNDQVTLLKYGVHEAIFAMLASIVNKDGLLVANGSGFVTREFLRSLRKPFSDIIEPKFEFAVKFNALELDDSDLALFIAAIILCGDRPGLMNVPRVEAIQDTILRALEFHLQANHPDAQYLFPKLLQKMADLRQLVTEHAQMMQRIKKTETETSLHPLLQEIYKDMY

Tests used:
[1] = molecular target: Myc proto-oncogene protein (Homo sapiens) (UniProt P01106); test: ATG_Myc_CIS: Attagene CIS-FACTORIAL HepG2 Assay for human Myelocytomatosis (Myc) Proto-Oncogene Transcription Factor (AID 2282990); conditions: HepG2, Attagene cis-reporter transcription factor activity; actives raise or lower the signal
How it was run: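 Read-out: fluorescent reporter mRNA fragments resolved by capillary electrophoresis after RT-PCR. Human HepG2 liver cells carried transfected cis-element reporter units and were dosed for 24 h. Gain or loss of signal fitted relative to DMSO baseline.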

[2] = ATG_NRF2_ARE_CIS: Attagene CIS-FACTORIAL HepG2 Assay for human Nuclear Factor Erythroid 2 Related Factor 2 (NFR2) response to Antioxidant Response Elements (ARE) (AID 2282992); conditions: HepG2 Attagene ARE/NRF2 reporter, transcription factor activity; actives raise or lower the signal
How it was run: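 Endogenous transcription factor activity read out as reporter transcript levels (RT-PCR plus capillary electrophoresis, fluorescence) in transiently transfected HepG2 cells. Measured at 24 h after dosing; gain or loss of signal fitted versus DMSO.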

[3] = ATG_Oct_MLP_CIS: Attagene CIS-FACTORIAL HepG2 Assay for human Octamer-Binding Transcription Factor (Oct) (AID 2282993); conditions: HepG2 Attagene cis-factorial Oct reporter, mRNA; actives raise or lower the signal
How it was run: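 Transfected HepG2 cells, 24 h treatment. Reporter mRNA quantified by RT-PCR–capillary electrophoresis; bidirectional fitting against DMSO.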

[4] = molecular target: Cellular tumor antigen p53 (Homo sapiens) (UniProt P04637); test: ATG_p53_CIS: Attagene CIS-FACTORIAL HepG2 Assay for human p53 Transcription Factor (AID 2282994); conditions: HepG2 p53 cis-element reporter, Attagene mRNA; actives raise or lower the signal
How it was run: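 Endogenous p53 activity read in transiently transfected HepG2 from a cis-element-driven reporter transcript after 24 h exposure. RNA reverse-transcribed, PCR-amplified, fluorescently labelled and sized by capillary electrophoresis; gain or loss fitted against DMSO baseline.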

[5] = BSK_3C_TissueFactor: BioMAP Diversity Plus: 3C Assay for Tissue Factor Biomarker Activity (AID 2282997); conditions: BioMAP 3C HUVEC, tissue factor biomarker readout; actives raise or lower the signal
How it was run: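 In this endothelial system, HUVEC are treated for 24 h and Tissue Factor is assessed by ELISA, normalised to DMSO.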

[6] = BSK_3C_uPAR: BioMAP Diversity Plus: 3C Assay for Urokinase-type plasminogen activator receptor (uPAR) Biomarker Activity (AID 2282998); conditions: BioMAP 3C HUVEC, uPAR biomarker ELISA; actives raise or lower the signal
Method: BSK_3C is a cell-based, multiplexed-readout assay that uses umbilical vein endothelium, a human vascular primary cell, with measurements taken at 24 hours after chemical dosing in a 96-well plate.BSK_3CAR is an assay component measured in the BSK_3C assay. It measures uPAR antibody related to regulation of gene expression using ELISA technology.Data from the assay component BSK_3CAR was analyzed into 1 assay endpoint. This assay endpoint, BSK_3CAR, was analyzed with bidirectional fitting relative to DMSO as the negative control and baseline of activity. Using a type of binding reporter, gain or loss-of-signal activity can be used to understand changes in the signaling as they relate to the gene PLAUR. Furthermore, this assay endpoint can be referred to as a primary readout, because this assay has produced multiple assay endpoints where this one serves a signaling function. To generalize the intended target to other relatable targets, this assay endpoint is annotated to the cytokine intended target family, where the subfamily is plasmogen activator.
(§1) The levels of cell surface (or secreted, indicated by the prefix "s") biomarker endpoints were measured by ELISA. Overt cytotoxicity to cells in confluent adherent cultures (all systems other than the BT system) was assessed by measuring total protein levels using sulforhodamine B (SRB) staining in parallel cultures at the time of biomarker measurements, indicated as SRB endpoints. For proliferation assays for adherent cell types, individual cell types are cultured at sub-confluence and relative cell numbers quantified by SRB staining at time points optimized for each system (48 h: 3C and CASM3C systems; 72 h: BT and HDF3CGF systems; 96 h: SAg system). SRB was performed by staining cells with 0.1% SRB after fixation with 10% TCA and reading wells at 560 nm.Viability and proliferation of PBMC (T cells) was quantified by Alamar Blue reduction for the SAg and BT systems. For PBMC viability (referred to as PBMC Cytotoxicity within the assay endpoint names), cells were plated (75,000/well in a 96-well plate) and then chemical samples added for 1 h before addition of activators, SEB and TSST-1 (20 ng/mL final concentration each). Cells were incubated for 90 h. Then, Alamar Blue (20 uL/well) (Invitrogen, Cat DAL1100) was added for 6 h, and the plates were read with a fluorescence microplate reader at 546/580 nm (excitation/emission). For PBMC proliferation, cells were plated and activated as above but incubated for only 16 h prior to addition of Alamar Blue. Plates were read after 6 h.

[7] = BSK_3C_VCAM1: BioMAP Diversity Plus: 3C Assay for Vascular cell adhesion molecule 1 (VCAM1) Biomarker Activity (AID 2282999); conditions: BioMAP 3C HUVEC, VCAM1 ELISA, cytokine-stimulated; actives raise or lower the signal
How it was run: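 HUVEC primary cells, 24 h compound exposure; VCAM-1 by ELISA; gain/loss of signal fitted bidirectionally vs DMSO baseline.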

[8] = BSK_4H_Eotaxin3: BioMAP Diversity Plus: 4H Assay for Eotaxin 3 Biomarker Activity (AID 2283000); conditions: actives raise or lower the signal; primary human endothelial cells (HUVEC);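 as to outcome: CCL26 protein level quantified by ELISA in parallel with SRB cytotoxicity check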
Method: BSK_4H is a cell-based, multiplexed-readout assay that uses umbilical vein endothelium, a human vascular primary cell, with measurements taken at 24 hours after chemical dosing in a 96-well plate.BSK_4H_Eotaxin3 is an assay component measured in the BSK_4H assay. It measures Eotaxin-3 antibody related to regulation of gene expression using ELISA technology.Data from the assay component BSK_4H_Eotaxin3 was analyzed into 1 assay endpoint. This assay endpoint, BSK_4H_Eotaxin3, was analyzed with bidirectional fitting relative to DMSO as the negative control and baseline of activity. Using a type of binding reporter, gain or loss-of-signal activity can be used to understand changes in the signaling as they relate to the gene CCL26. Furthermore, this assay endpoint can be referred to as a primary readout, because this assay has produced multiple assay endpoints where this one serves a signaling function. To generalize the intended target to other relatable targets, this assay endpoint is annotated to the cytokine intended target family, where the subfamily is chemotactic factor.
as §1

[9] = molecular target: human Peroxisome Proliferator-activated Receptor alpha (PPARa), PPARA (gene 5465) (UniProt Q07869); test: ATG_PPARa_TRANS: Attagene TRANS-FACTORIAL HepG2 Assay for human Peroxisome Proliferator-activated Receptor alpha (PPARa) (AID 2283001; active = hit-call score of the fitted dose curve at least 0.9, where 1 is the maximum)
How it was run: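 Transient HepG2 transfection, GAL4-UAS reporters, NR-Gal4 chimeras; 24 h compound exposure. Readout: reporter transcripts by RT-PCR, 6-FAM primer extension, HpaI digest, capillary electrophoresis. Positive direction vs DMSO baseline.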

[10] = molecular target: human Peroxisome Proliferator-activated Receptor delta (PPARd), PPARD (gene 5467) (UniProt Q03181); test: ATG_PPARd_TRANS: Attagene TRANS-FACTORIAL HepG2 Assay for human Peroxisome Proliferator-activated Receptor delta (PPARd) (AID 2283002; active = hit-call score of the fitted dose curve at least 0.9, where 1 is the maximum)
Method: ATG_TRANS is a cell-based, multiplexed-readout assay that uses HepG2, a human liver cell line, with measurements taken at 24 hours after chemical dosing in a 24-well plate.ATG_PPARd_TRANS is one of 30 assay component(s) measured or calculated from the ATG_TRANS assay. It is designed to make measurements of mRNA induction, a form of inducible reporter, as detected with fluorescence intensity signals by Reverse transcription polymerase chain reaction (RT-PCR) and Capillary electrophoresis technology.Data from the assay component ATG_PPARd_TRANS was analyzed into 1 assay endpoint. This assay endpoint, ATG_PPARd_TRANS, was analyzed in the positive analysis fitting direction relative to DMSO as the negative control and baseline of activity. Using a type of inducible reporter, measures of mRNA for gain-of-signal activity can be used to understand the reporter gene at the transcription factor-level as they relate to the gene PPARD. Furthermore, this assay endpoint can be referred to as a primary readout, because this assay has produced multiple assay endpoints where this one serves a reporter gene function. To generalize the intended target to other relatable targets, this assay endpoint is annotated to the nuclear receptor intended target family, where the subfamily is non-steroidal.
Human liver HepG2 cells are transiently transfected with multiple reporter transcription units (MRTUs) in 6-well plates using FuGene 6 reagent (Roche; 3 ml FuGene/1 mg DNA). The MRTU constructs are regulated by a cis-regulating element (promoter). […] A major difference between the CIS and TRANS system is that in CIS activities of endogenous TFs are measured, whereas the TRANS assay evaluates changes in activities of exogenous, chimeric NR-Gal4 proteins. […] At the end of 24 hour incubation, total RNA was isolated using TriZol reagent (Invitrogen). The isolated RNA is then reverse-transcribed using oligo(dT) primer and Mo-MLV reverse transcriptase (Invitrogen) with DNAse I (Ambion) treatment for 30 min. The one-tenth of the produced cDNA was amplified by PCR using Taq DNA polymerase (Invitrogen) and two reporter sequence-specific primers. The PCR products were fluorescently labeled by primer extension with 6-arboxyfluorescein (6-FAM) 5'-labeled reporter sequence-specific primer (2 min at 95 C, 20 s at 68 C and 10 min at 72 C) and these products were digested with 5U of HpaI (New England Biolabs) for 2h at 37 C. The fragments were purified using Qiaquick PCR columns (Qiagen), analyzed on an ABI 3130xL genetic analyzer (Applied Biosystems) with peak positions identified by using a set of X-rhodamine (ROX)-labeled MapMarker1000 molecular weight standards (BioVentures). The raw capillary electrophoresis data was processed using Attagraph software (Attagene).

## Cc1ccc([N+](=O)[O-])cc1[N+](=O)[O-]
[1]
  outcome: inactive
[2]
  outcome: inactive
[3]
  outcome: inactive
[4]
  outcome: inactive
[5]
  outcome: inactive
[6]
  outcome: inactive
[7]
  outcome: inactive
[8]
  outcome: inactive

## CC(C)OP(C)(=O)OC(C)C
[1]
  outcome: inactive
[2]
  outcome: inactive
[3]
  outcome: inactive
[4]
  outcome: inactive
[5]
  outcome: inactive
[6]
  outcome: inactive
[7]
  outcome: inactive
[8]
  AC50: active: 25 µM
[9]
  outcome: inactive
[10]
  outcome: inactive

## Cc1ccc([N+](=O)[O-])c([N+](=O)[O-])c1
[1]
  outcome: inactive
[2]
  AC50: active: 6.81 µM
[3]
  outcome: inactive
[5]
  AC50: active: 4.43 µM
[6]
  outcome: inactive
[7]
  AC50: active: 4.08 µM
[8]
  AC50: active: 3.97 µM
[9]
  outcome: inactive

## CC(C)N(CCO)C(C)C
[1]
  outcome: inactive
[2]
  outcome: inactive
[3]
  outcome: inactive
[4]
  outcome: inactive
[9]
  outcome: inactive

## O=[N+]([O-])OCC(CO[N+](=O)[O-])(CO[N+](=O)[O-])CO[N+](=O)[O-]
[1]
  outcome: inactive
[2]
  outcome: inactive
[3]
  outcome: inactive
[4]
  outcome: inactive
[10]
  outcome: inactive

## N#CBr
[1]
  outcome: inactive
[2]
  outcome: inactive
[3]
  outcome: inactive
[4]
  outcome: inactive
[10]
  outcome: inactive

## COP(C)(=O)OC
[1]
  outcome: inactive
[2]
  outcome: inactive
[3]
  outcome: inactive
[4]
  outcome: inactive
[9]
  outcome: inactive
[10]
  outcome: inactive

## CN(C)CCCl
[1]
  outcome: inactive
[2]
  outcome: inactive
[3]
  outcome: inactive
[4]
  outcome: inactive
[9]
  outcome: inactive
[10]
  outcome: inactive

## O=[N+]([O-])c1cccc([N+](=O)[O-])c1
[1]
  outcome: inactive
[2]
  AC50: active: 76.8 µM
[3]
  outcome: inactive
[4]
  outcome: inactive
[5]
  outcome: inactive
[6]
  outcome: inactive
[7]
  outcome: inactive
[8]
  outcome: inactive
[9]
  outcome: inactive

## Cc1c([N+](=O)[O-])cccc1[N+](=O)[O-]
[1]
  outcome: inactive
[2]
  outcome: inactive
[3]
  outcome: inactive
[5]
  outcome: inactive
[6]
  outcome: inactive
[7]
  outcome: inactive
[8]
  outcome: inactive
[9]
  outcome: inactive
[10]
  outcome: inactive

## Cc1cccc([N+](=O)[O-])c1[N+](=O)[O-]
[1]
  outcome: inactive
[2]
  AC50: active: 10.6 µM
[3]
  AC50: active: 92.3 µM
[4]
  outcome: inactive
[5]
  outcome: inactive
[6]
  outcome: inactive
[7]
  AC50: active: 6.34 µM
[8]
  outcome: inactive
[9]
  outcome: inactive

## COc1ccc([N+](=O)[O-])cc1[N+](=O)[O-]
[1]
  outcome: inactive
[2]
  outcome: inactive
[3]
  outcome: inactive
[4]
  outcome: inactive
[9]
  outcome: inactive
